Test results: PMC10977726 (PLOS ONE, 2024)

By UniProt entry, the sequences of proteins in these tests, tags left out. Residues count along the entry.
UniProt P15692, 214-315: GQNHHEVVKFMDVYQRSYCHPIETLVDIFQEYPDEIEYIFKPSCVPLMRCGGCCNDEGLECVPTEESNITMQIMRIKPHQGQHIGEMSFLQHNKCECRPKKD
UniProt P02768, 25-609: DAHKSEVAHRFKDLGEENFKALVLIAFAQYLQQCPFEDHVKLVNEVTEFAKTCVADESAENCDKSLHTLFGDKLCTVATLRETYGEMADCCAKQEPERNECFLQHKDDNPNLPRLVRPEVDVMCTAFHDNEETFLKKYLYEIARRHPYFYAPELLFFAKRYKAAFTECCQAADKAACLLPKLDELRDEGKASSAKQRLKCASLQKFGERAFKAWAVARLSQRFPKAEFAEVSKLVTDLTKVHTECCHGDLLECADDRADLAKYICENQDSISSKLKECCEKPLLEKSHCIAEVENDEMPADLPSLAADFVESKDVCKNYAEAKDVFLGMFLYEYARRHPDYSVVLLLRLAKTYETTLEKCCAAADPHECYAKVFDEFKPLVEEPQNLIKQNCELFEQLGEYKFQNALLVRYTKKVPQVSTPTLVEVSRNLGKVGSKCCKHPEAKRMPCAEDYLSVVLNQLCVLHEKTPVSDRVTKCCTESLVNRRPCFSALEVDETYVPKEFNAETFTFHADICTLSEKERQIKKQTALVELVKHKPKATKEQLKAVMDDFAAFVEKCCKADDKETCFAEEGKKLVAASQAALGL

Columns and labels:
human IgG Fc [1] = target: T1, human IgG Fc (Homo sapiens, UniProt P01857); assay: Phage competition ELISA (synthetic DCP vs its own phage); type: binding; settings: Table S12; synthetic DCP competing with its own phage for biotinylated human IgG Fc on neutravidin plate; absorbance 450 nm; averaged from at least three independent runs
T1 construct: Biotin-SP-ChromPure Human IgG, Fc fragment; purchased Jackson Immunoresearch Labs Inc. 009060008

human IgG Fc [2] = target: T1, human IgG Fc; assay: SPR; settings: Table S12; SPR Biacore S200, PBS-T pH 7.4, biotinylated protein on SA chip; averaged from at least three independent runs; N.A. = no detectable binding; * estimated value due to possible non-specific binding
[3] = 100% human serum, 0.2 mM DCP, 37°C, LC-MS, UV 220 nm peak area normalized to 0 h, three independent experiments
human VEGF-A = target: T2, human VEGF-A (Homo sapiens, UniProt P15692); assay: SPR; settings: Table S16; SPR against VEGF-A; averaged from at least three independent runs; estimated KD values due to possible non-specific binding
T2 construct: biotin-VEGF-A (8–109, Genentech)

human serum albumin = target: T3, human serum albumin (Homo sapiens, UniProt P02768); assay: SPR; settings: Table S12 and text; SPR Biacore S200, PBS-T pH 7.4, biotinylated human serum albumin on SA chip; at least three independent runs; N.A. = no detectable binding
T3 construct: purchased Rockland Immunochemicals, Inc. 009–0633
Protocol: SPR measurements were carried out on a Biacore S200 instrument (GE Healthcare) with PBS-T (PBS with 0.05% Tween 20, pH 7.4) as the assay buffer as described previously. For kinetic measurements, biotinylated protein was captured on three separate sensor channels of a Series S SA Sensor chip (GE Healthcare). The chip was then blocked with 0.1 mg/mL free biotin. A concentration series of the DCP were injected to the chip. Data were double-referenced by subtracting the signal from a control sensor channel (coated with biotin only) and the signal from a buffer injection. Binding data were fitted using the manufacturer’s software (1:1 or two state binding model for single-cycle kinetics or steady-state model for multi-cycle kinetics).

In the case of `CC(C)C[C@@H]1NC(=O)[C@@H]2CSSC[C@@H](C(=O)NCC(=O)O)NC(=O)[C@H](Cc3ccccc3)NC(=O)CNC(=O)[C@H](CC(N)=O)NC(=O)[C@@H]3CCCN3C(=O)CNC(=O)[C@@H]3CSSC[C@H](NC(=O)[C@H](Cc4ccccc4)NC(=O)[C@H](Cc4c[nH]c5ccccc45)NC(=O)[C@H](C(C)C)NC(=O)[C@H](CCCNC(=N)N)NC(=O)[C@H](Cc4ccc(O)cc4)NC(=O)[C@H](Cc4c[nH]c5ccccc45)NC(=O)[C@H](Cc4ccc(O)cc4)NC(=O)[C@H](Cc4c[nH]cn4)NC(=O)[C@H](C)NC(=O)[C@H](CCC(N)=O)NC(=O)[C@@H](NC(=O)CN)CSSC[C@H](NC(=O)CNC(=O)[C@H](C)NC1=O)C(=O)N[C@@H](C(C)C)C(=O)N3)C(=O)N[C@@H](CCCCN)C(=O)N[C@@H](CCC(N)=O)C(=O)N[C@@H](CC(=O)O)C(=O)N[C@@H](CO)C(=O)N[C@@H](CC(=O)O)C(=O)N2` [Ig-EET-1], the IC50 (human IgG Fc [1]) is reported as 0.447 µM, the Kd (human IgG Fc [2]) is reported as 0.228 µM and the “loss of peptides after 24 h” value [3] is reported as 40–50%.
With `CC[C@H](C)[C@@H]1NC(=O)[C@H](CCC(N)=O)NC(=O)[C@H](Cc2c[nH]cn2)NC(=O)[C@@H]2CCCN2C(=O)[C@H](Cc2ccccc2)NC(=O)[C@H](Cc2c[nH]c3ccccc23)NC(=O)[C@@H]2CCCN2C(=O)[C@H]([C@@H](C)O)NC(=O)[C@H](CCC(N)=O)NC(=O)[C@@H](NC(=O)CN)CSSC[C@@H]2NC(=O)CNC(=O)[C@H](C)NC(=O)[C@H](CC(C)C)NC(=O)[C@@H]3CSSC[C@@H](C(=O)NCC(=O)O)NC(=O)[C@H](Cc4ccccc4)NC(=O)CNC(=O)[C@H](CC(N)=O)NC(=O)[C@@H]4CCCN4C(=O)CNC(=O)[C@H](CSSC[C@H](NC(=O)[C@H](CC(C)C)NC1=O)C(=O)N[C@@H](CCCCN)C(=O)N[C@@H](CCC(N)=O)C(=O)N[C@@H](CC(=O)O)C(=O)N[C@@H](CO)C(=O)N[C@@H](CC(=O)O)C(=O)N3)NC(=O)[C@H](C(C)C)NC2=O` [V-EET-2] the Kd (human VEGF-A) was over 30 µM.
`CC[C@H](C)[C@@H]1NC(=O)[C@H](Cc2c[nH]cn2)NC(=O)[C@H](Cc2c[nH]cn2)NC(=O)[C@@H]2CCCN2C(=O)[C@H](C(C)C)NC(=O)[C@H](Cc2c[nH]c3ccccc23)NC(=O)[C@@H]2CCCN2C(=O)[C@H]([C@@H](C)O)NC(=O)[C@H]([C@@H](C)O)NC(=O)[C@@H](NC(=O)CN)CSSC[C@@H]2NC(=O)CNC(=O)[C@H](C)NC(=O)[C@H](CC(C)C)NC(=O)[C@@H]3CSSC[C@@H](C(=O)NCC(=O)O)NC(=O)[C@H](Cc4ccccc4)NC(=O)CNC(=O)[C@H](CC(N)=O)NC(=O)[C@@H]4CCCN4C(=O)CNC(=O)[C@H](CSSC[C@H](NC(=O)[C@H](CCSC)NC1=O)C(=O)N[C@@H](CCCCN)C(=O)N[C@@H](CCC(N)=O)C(=O)N[C@@H](CC(=O)O)C(=O)N[C@@H](CO)C(=O)N[C@@H](CC(=O)O)C(=O)N3)NC(=O)[C@H](C(C)C)NC2=O` [V-EET-1] showed a Kd (human VEGF-A) of over 20 µM.
With `CSCC[C@@H]1NC(=O)[C@@H]2CSSC[C@H](NC(=O)[C@H](CO)NC(=O)[C@@H](N)C(C)C)C(=O)N[C@@H]([C@@H](C)O)C(=O)N[C@@H]([C@@H](C)O)C(=O)N[C@@H](CO)C(=O)N[C@@H](CCCCN)C(=O)N[C@@H](CCC(=O)O)C(=O)N[C@H]3CSSC[C@H](NC(=O)[C@H]([C@@H](C)O)NC(=O)[C@H](CC(N)=O)NC(=O)[C@H](CCCNC(=N)N)NC1=O)C(=O)N[C@@H](Cc1ccc(O)cc1)C(=O)N[C@H](C(=O)N[C@H](C(=O)N1CCC[C@H]1C(=O)O)[C@@H](C)O)CSSC[C@H](NC(=O)[C@H](C(C)C)NC(=O)[C@H](CO)NC(=O)[C@H](Cc1c[nH]c4ccccc14)NC3=O)C(=O)N[C@@H](CCC(N)=O)C(=O)N[C@@H](CCCNC(=N)N)C(=O)N[C@@H](CC(C)C)C(=O)N[C@@H](Cc1c[nH]cn1)C(=O)N[C@@H](CC(N)=O)C(=O)N[C@@H]([C@@H](C)O)C(=O)N[C@@H](CO)C(=O)N[C@@H](Cc1ccc(O)cc1)C(=O)NCC(=O)N[C@@H]([C@@H](C)O)C(=O)NCC(=O)N2` [Hs-Chr-3] the Kd (human serum albumin) was 0.44 µM.
